These results are taken from publication PMC5755735, “Discovery of indolylpiperazinylpyrimidines with dual-target profiles at adenosine A2A and dopamine D2 receptors for Parkinson's disease treatment” (PLoS ONE, 2018).

The chains behind the UniProt entries cited, without tags or fusion partners.
UniProt P14416, whole entry: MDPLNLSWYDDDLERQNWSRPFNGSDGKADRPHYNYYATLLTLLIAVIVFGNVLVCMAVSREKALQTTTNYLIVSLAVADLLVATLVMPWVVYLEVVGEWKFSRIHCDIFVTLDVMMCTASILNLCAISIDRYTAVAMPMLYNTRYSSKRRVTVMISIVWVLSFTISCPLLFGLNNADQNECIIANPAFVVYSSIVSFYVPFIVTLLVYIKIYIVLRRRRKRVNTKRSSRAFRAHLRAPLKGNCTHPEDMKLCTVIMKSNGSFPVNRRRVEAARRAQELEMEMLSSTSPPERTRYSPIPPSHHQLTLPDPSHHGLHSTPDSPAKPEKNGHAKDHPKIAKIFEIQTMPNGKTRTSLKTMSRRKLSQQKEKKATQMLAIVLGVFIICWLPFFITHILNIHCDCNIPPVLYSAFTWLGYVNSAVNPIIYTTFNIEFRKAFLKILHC

The target in this assay is human dopamine D2 receptor (Homo sapiens, UniProt P14416). As to the kind of experiment: D2R-proteopolymersomes-based fluorescence competition assay with BODIPY-NAPS. Also on record: made in house; host or cells: in vitro (cell-free) synthesis, inserted into polymersomes. In kind it is binding. The method, then:
In addition to the human A2A receptor binding affinity assay, the newly synthesized IPP derivatives were further examined for their binding affinity toward human dopamine D2 receptor. […] The mixture was then incubated with solutions containing eight different concentrations (ranging from 3 nM to 0.3 mM) of compounds 5 and 6, and the measured fluorescence intensity against ligand concentration was plotted accordingly (Fig 5A and 5B).
Polymersomes (ABA triblock-copolymer and BD21 diblock-copolymer: ABA stands for PMOXA-PDMS-PMOXA; A = PMOXA = poly(2-methyloxazoline); B = PDMS = poly(dimethylsiloxane) and BD21 stands for [PBd]22-b-[PEO]13; PBd/PEO = polybutadiene/polyethylene oxide) preparation, cloning and in vitro synthesis of dopamine D2 receptor, and purification of proteopolymersomes were performed following previously described procedures. For the replacement assay, ABA-polymersomes were covalently attached to an amino-functionalized glass slide, which was then treated with isopropanol, ultrapure water and a N2-stream. […] Program ImageJ was used for determination of fluorescence intensities.

Structures can show the parent of a compound that is named as a salt. Where two headings read alike, the source gives them in different places.

As usually defined, the EC50 is the midpoint of the concentration-response curve. For `CCCN(CCc1ccccc1)C1CCc2c(O)cccc2C1` (racemic) [(±)-PPHT.HCl, (±)-2-(N-phenethyl-N-propyl)amino-5-hydroxytetralin hydrochloride, reference compound], the EC50 by setting is: (+ D2-ACM (D2R-proteopolymersomes), read-out: EC50 (D2 receptor, displacement of BODIPY-NAPS)) 0.2 µM; (+ heated D2-ACM: D2R-proteopolymersomes denatured with heat, read-out: EC50 (heated D2-ACM, non-binding control)) 0.3 µM.
